# Experimental data published in PubChem BioAssay AID2355 (The Scripps Research Institute Molecular Screening Center, 2010).
# The chains behind the UniProt entries cited, without tags or fusion partners.
# UniProt P62136, whole entry, looked up: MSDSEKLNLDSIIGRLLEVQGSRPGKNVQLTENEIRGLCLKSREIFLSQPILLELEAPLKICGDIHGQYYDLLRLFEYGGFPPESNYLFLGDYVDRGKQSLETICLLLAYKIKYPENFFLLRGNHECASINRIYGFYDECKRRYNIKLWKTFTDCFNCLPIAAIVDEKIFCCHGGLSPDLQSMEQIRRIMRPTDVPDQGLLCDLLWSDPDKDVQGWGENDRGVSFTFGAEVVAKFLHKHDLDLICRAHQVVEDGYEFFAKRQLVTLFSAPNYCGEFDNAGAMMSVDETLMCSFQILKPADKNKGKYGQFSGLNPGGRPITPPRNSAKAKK
# Only a part is listed here, and it is no random draw. Activity calls are given as the source filed them. Rule as the data show it: active = inhibition above about 16%; inactive = the rest.
# Target: Serine/threonine-protein phosphatase PP1-alpha catalytic subunit (Homo sapiens) (UniProt P62136)
# Assay: human PP1 catalytic activity blockade – biochemical, fluorescence, triplicate, counter-screen for PP5 inhibitor project (AID 2355)
# Settings: PP1 enzyme, fluorescent phosphatase substrate; at 6.7 µM; stronger effect = higher value
structure (smiles),measurement,value
CN(C(=O)Cc1ccc(Cl)c(Cl)c1)[C@H]1CCCC[C@H]1N1CCCC1,inhibition,inactive: 1.26%
